Amino acid sequences for entries named in this document (tags omitted). Residues count along the entry.
UniProt P25774, 115-331: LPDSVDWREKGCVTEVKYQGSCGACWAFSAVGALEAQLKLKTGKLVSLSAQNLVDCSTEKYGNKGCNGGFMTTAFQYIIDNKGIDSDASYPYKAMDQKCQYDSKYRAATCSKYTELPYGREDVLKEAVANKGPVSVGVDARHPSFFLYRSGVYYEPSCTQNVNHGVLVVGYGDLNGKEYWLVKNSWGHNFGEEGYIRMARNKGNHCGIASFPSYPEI

According to patent US20090099157A1, “TETRAHYDRO-PYRAZOLO-PYRIDINE THIOETHER MODULATORS OF CATHEPSIN S” (priority 2007, published 2009):

Target: Recombinant human cathepsin S (CatS) (Homo sapiens, UniProt P25774)
Experiment: biochemical

Row | Compound | IC50
1 | CS(=O)(=O)N1CCc2c(c(-c3ccc(C(F)(F)F)c(SCC(=O)Nc4ccc(-c5ccccc5)cc4)c3)nn2CC(O)CN2CCC(N3CCCC3=O)CC2)C1 (stereo not shown) [Example 66, N-Biphenyl-4-yl-2-[5-(1-{2-hydroxy-3-[4-(2-oxo-pyrrolidin-1-yl)-piperidin-1-yl]-propyl}-5-methanesulfonyl-4,5,6,7-tetrahydro-1H-pyrazolo[4,3-c]pyridin-3-yl)-2-trifluoromethyl-phenylsulfanyl]-acetamide] | 1100 nM
2 | CS(=O)(=O)N1CCc2c(c(-c3ccc(Cl)c(SCc4ccc(F)cc4)c3)nn2CCCN2CCOCC2)C1 [Example 136, 3-[4-Chloro-3-(4-fluoro-benzylsulfanyl)-phenyl]-5-methanesulfonyl-1-(3-morpholin-4-yl-propyl)-4,5,6,7-tetrahydro-1H-pyrazolo[4,3-c]pyridine] | 680 nM
3 | CS(=O)(=O)N1CCc2c(c(-c3ccc(C(F)(F)F)c(SCCN4C=NCCC4)c3)nn2C[C@@H](O)CN2CCOCC2)C1 [Example 347, (2S)-1-{3-[3-{[2-(5,6-Dihydropyrimidin-1(4H)-yl)ethyl]sulfanyl}-4-(trifluoromethyl)phenyl]-5-(methylsulfonyl)-4,5,6,7-tetrahydro-1H-pyrazolo[4,3-c]pyridin-1-yl}-3-morpholin-4-ylpropan-2-ol] | 1850 nM
4 | O[C@@H](CN1CCC(c2ccncc2)CC1)Cn1nc(-c2ccc(C(F)(F)F)c(SCCN3CCC(F)CC3)c2)c2c1CCNC2 [Example 400, (2S)-1-{3-[3-{[2-(4-Fluoropiperidin-1-yl)ethyl]sulfanyl}-4-(trifluoromethyl)phenyl]-4,5,6,7-tetrahydro-1H-pyrazolo[4,3-c]pyridin-1-yl}-3-(4-pyridin-4-ylpiperidin-1-yl)propan-2-ol] | 680 nM
5 | O=C(CSc1cc(-c2nn(CC(O)CN3CCC(N4CCCC4)CC3)c3c2CNCC3)ccc1C(F)(F)F)N1CCOCC1 (stereo not shown) [Example 360, 1-(3-{3-[(2-Morpholin-4-yl-2-oxoethyl)sulfanyl]-4-(trifluoromethyl)phenyl}-4,5,6,7-tetrahydro-1H-pyrazolo[4,3-c]pyridin-1-yl)-3-(4-pyrrolidin-1-ylpiperidin-1-yl)propan-2-ol] | 7540 nM
6 | O=C(CC1CCNCC1)N1CCc2c(c(-c3ccc(C(F)(F)F)c(SCCN4CCOCC4)c3)nn2CC(O)CN2CCCCC2)C1 (stereo not shown) [Example 242, 1-[3-{3-[(2-Morpholin-4-ylethyl)sulfanyl]-4-(trifluoromethyl)phenyl}-5-(piperidin-4-ylacetyl)-4,5,6,7-tetrahydro-1H-pyrazolo[4,3-c]pyridin-1-yl]-3-piperidin-1-ylpropan-2-ol] | 580 nM
7 | CCCNCCSc1cc(-c2nn(CCCN3CCC(NS(C)(=O)=O)CC3)c3c2CN(S(C)(=O)=O)CC3)ccc1C(F)(F)F [Example 580, N-[1-(3-{5-(Methylsulfonyl)-3-[3-{[2-(propylamino)ethyl]sulfanyl}-4-(trifluoromethyl)phenyl]-4,5,6,7-tetrahydro-1H-pyrazolo[4,3-c]pyridin-1-yl}propyl)piperidin-4-yl]methanesulfonamide] | 560 nM
8 | CC(C)(C)C1CCN(CC(O)Cn2nc(-c3ccc(C(F)(F)F)c(SCC(=O)N4CCCC4)c3)c3c2CCNC3)CC1 (stereo not shown) [Example 269, 1-[4-(1,1-Dimethylethyl)piperidin-1-yl]-3-(3-{3-[(2-oxo-2-pyrrolidin-1-ylethyl)sulfanyl]-4-(trifluoromethyl)phenyl}-4,5,6,7-tetrahydro-1H-pyrazolo[4,3-c]pyridin-1-yl)propan-2-ol] | 630 nM
9 | CC1(C)CCN(CC(O)Cn2nc(-c3ccc(C(F)(F)F)c(SCC(=O)N4CCCC4)c3)c3c2CCNC3)CC1 (stereo not shown) [Example 300, 1-(4,4-Dimethylpiperidin-1-yl)-3-(3-{3-[(2-oxo-2-pyrrolidin-1-ylethyl)sulfanyl]-4-(trifluoromethyl)phenyl}-4,5,6,7-tetrahydro-1H-pyrazolo[4,3-c]pyridin-1-yl)propan-2-ol] | 3150 nM
10 | CC1(C)CCCN(CC(O)Cn2nc(-c3ccc(C(F)(F)F)c(SCCN4CCOCC4)c3)c3c2CCN(S(C)(=O)=O)C3)C1 (stereo not shown) [Example 458, 1-(3,3-Dimethylpiperidin-1-yl)-3-[5-(methylsulfonyl)-3-{3-[(2-morpholin-4-ylethyl)sulfanyl]-4-(trifluoromethyl)phenyl}-4,5,6,7-tetrahydro-1H-pyrazolo[4,3-c]pyridin-1-yl]propan-2-ol] | 540 nM
11 | NC1(C(=O)N2CCc3c(c(-c4ccc(C(F)(F)F)c(SCCN5CCC(F)CC5)c4)nn3CC(O)CN3CCCCC3)C2)CC1 (stereo not shown) [Example 428, 1-{5-[(1-Aminocyclopropyl)carbonyl]-3-[3-{[2-(4-fluoropiperidin-1-yl)ethyl]sulfanyl}-4-(trifluoromethyl)phenyl]-4,5,6,7-tetrahydro-1H-pyrazolo[4,3-c]pyridin-1-yl}-3-piperidin-1-ylpropan-2-ol] | 1140 nM
12 | CC1CCN(C[C@H](O)Cn2nc(-c3ccc(C(F)(F)F)c(SCCN4CCC(F)CC4)c3)c3c2CCNC3)CC1 [Example 304, (2S)-1-{3-[3-{[2-(4-Fluoropiperidin-1-yl)ethyl]sulfanyl}-4-(trifluoromethyl)phenyl]-4,5,6,7-tetrahydro-1H-pyrazolo[4,3-c]pyridin-1-yl}-3-(4-methylpiperidin-1-yl)propan-2-ol] | 2860 nM

Continued, values first:

Row | IC50 | Compound
13 | 520 nM | CS(=O)(=O)N1CCc2c(c(-c3ccc(C(F)(F)F)c(SCCN4CCC(C(N)=O)CC4)c3)nn2C[C@@H](O)CN2CCCCC2)C1 [Example 218, 1-(2-{[5-{1-[(2S)-2-Hydroxy-3-piperidin-1-ylpropyl]-5-(methylsulfonyl)-4,5,6,7-tetrahydro-1H-pyrazolo[4,3-c]pyridin-3-yl}-2-(trifluoromethyl)phenyl]sulfanyl}ethyl)piperidine-4-carboxamide]
14 | 150 nM | CS(=O)(=O)N1CCc2c(c(-c3ccc(C(F)(F)F)c(SCCN4CCCC(Cc5ccccc5)C4)c3)nn2CCCN2CCC(N3CCCC3=O)CC2)C1 (stereo not shown) [Example 878, 1-[1-(3-{5-(Methylsulfonyl)-3-[3-({2-[3-(phenylmethyl)piperidin-1-yl]ethyl}sulfanyl)-4-(trifluoromethyl)phenyl]-4,5,6,7-tetrahydro-1H-pyrazolo[4,3-c]pyridin-1-yl}propyl)piperidin-4-yl]pyrrolidin-2-one]
15 | 530 nM | CS(=O)(=O)N1CCc2c(c(-c3ccc(C(F)(F)F)c(SCCNCCCO)c3)nn2CCCN2CCC(N3CCCC3=O)CC2)C1 [Example 598, 1-[1-(3-{3-[3-({2-[(3-Hydroxypropyl)amino]ethyl}sulfanyl)-4-(trifluoromethyl)phenyl]-5-(methylsulfonyl)-4,5,6,7-tetrahydro-1H-pyrazolo[4,3-c]pyridin-1-yl}propyl)piperidin-4-yl]pyrrolidin-2-one]
16 | 70 nM | CC(C)(C)C1CCN(C[C@H](O)Cn2nc(-c3ccc(C(F)(F)F)c(SCCN4CCCC(F)C4)c3)c3c2CCN(S(C)(=O)=O)C3)CC1 (stereo partly drawn) [Example 652, (2S)-1-[4-(1,1-Dimethylethyl)piperidin-1-yl]-3-{3-[3-{[2-(3-fluoropiperidin-1-yl)ethyl]sulfanyl}-4-(trifluoromethyl)phenyl]-5-(methylsulfonyl)-4,5,6,7-tetrahydro-1H-pyrazolo[4,3-c]pyridin-1-yl}propan-2-ol]
17 | 15 nM | CS(=O)(=O)N1CCc2c(c(-c3ccc(C(F)(F)F)c(SCCN4CCCC(F)C4)c3)nn2C[C@@H](O)CN2CCC(C3CCCCC3)CC2)C1 (stereo partly drawn) [Example 757, (2S)-1-(4-Cyclohexylpiperidin-1-yl)-3-{3-[3-{[2-(3-fluoropiperidin-1-yl)ethyl]sulfanyl}-4-(trifluoromethyl)phenyl]-5-(methylsulfonyl)-4,5,6,7-tetrahydro-1H-pyrazolo[4,3-c]pyridin-1-yl}propan-2-ol]
18 | 110 nM | CS(=O)(=O)N1CCc2c(c(-c3ccc(C(F)(F)F)c(SCCN4CCCCC4)c3)nn2CC(O)CN2CCC(N3CCOCC3)CC2)C1 (stereo not shown) [Example 687, 1-[5-(Methylsulfonyl)-3-{3-[(2-piperidin-1-ylethyl)sulfanyl]-4-(trifluoromethyl)phenyl}-4,5,6,7-tetrahydro-1H-pyrazolo[4,3-c]pyridin-1-yl]-3-(4-morpholin-4-ylpiperidin-1-yl)propan-2-ol]
19 | 270 nM | O=C(NC1CCCCC1)N1CCc2c(c(-c3ccc(C(F)(F)F)c(SCCN4CCC(F)CC4)c3)nn2C[C@@H](O)CN2CCCCC2)C1 [Example 630, N-Cyclohexyl-3-[3-{[2-(4-fluoropiperidin-1-yl)ethyl]sulfanyl}-4-(trifluoromethyl)phenyl]-1-[(2S)-2-hydroxy-3-piperidin-1-ylpropyl]-1,4,6,7-tetrahydro-5H-pyrazolo[4,3-c]pyridine-5-carboxamide]
20 | 70 nM | CS(=O)(=O)N1CCc2c(c(-c3ccc(C(F)(F)F)c(SCCN4CCCCC4)c3)nn2CC(O)CN2CCC(n3cn[nH]c3=O)CC2)C1 (stereo not shown) [Example 678, 4-(1-{2-Hydroxy-3-[5-(methylsulfonyl)-3-{3-[(2-piperidin-1-ylethyl)sulfanyl]-4-(trifluoromethyl)phenyl}-4,5,6,7-tetrahydro-1H-pyrazolo[4,3-c]pyridin-1-yl]propyl}piperidin-4-yl)-2,4-dihydro-3H-1,2,4-triazol-3-one]
21 | 420 nM | CS(=O)(=O)NC1CCN(CC(O)Cn2nc(-c3ccc(C(F)(F)F)c(SCCN4CCOCC4)c3)c3c2CCN(S(C)(=O)=O)C3)CC1 (stereo not shown) [Example 731, N-(1-{2-Hydroxy-3-[5-(methylsulfonyl)-3-{3-[(2-morpholin-4-ylethyl)sulfanyl]-4-(trifluoromethyl)phenyl}-4,5,6,7-tetrahydro-1H-pyrazolo[4,3-c]pyridin-1-yl]propyl}piperidin-4-yl)methanesulfonamide]
22 | 200 nM | CS(=O)(=O)N1CCc2c(c(-c3ccc(C(F)(F)F)c(SCCN4CCC5CCCCC5C4)c3)nn2C[C@@H](O)CN2CCOCC2)C1 (stereo partly drawn) [Example 594, (2S)-1-{5-(Methylsulfonyl)-3-[3-{[2-(octahydroisoquinolin-2(1H)-yl)ethyl]sulfanyl}-4-(trifluoromethyl)phenyl]-4,5,6,7-tetrahydro-1H-pyrazolo[4,3-c]pyridin-1-yl}-3-morpholin-4-ylpropan-2-ol]
